Data from US12018299B2, “Methods and kits for quantifying adenosine-containing molecules” (priority 2017, dated 2024).

The chains behind the UniProt entries cited, without tags or fusion partners.
UniProt Q9ZMY2, whole entry D198N: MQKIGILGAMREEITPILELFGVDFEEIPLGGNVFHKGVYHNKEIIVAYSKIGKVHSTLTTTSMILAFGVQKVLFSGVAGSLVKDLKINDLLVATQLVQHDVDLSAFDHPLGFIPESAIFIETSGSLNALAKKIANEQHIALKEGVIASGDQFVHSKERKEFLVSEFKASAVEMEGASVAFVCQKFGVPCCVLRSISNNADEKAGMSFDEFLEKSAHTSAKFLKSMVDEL

Target: MTAN-D198N (Helicobacter pylori, UniProt Q9ZMY2, D198N)
Conditions: read-out: Ki from competitive FP assay; 11.3 nM AdoHcy-TAMRA, 50 nM MTAN-D198N

SMILES | Ki
C[S+](CC[C@H](N)C(=O)O)C[C@H]1O[C@@H](n2cnc3c(N)ncnc32)[C@H](O)[C@@H]1O (some centres unmarked) [AdoMet, S-adenosyl methionine] | 989 ± 160 nM
Nc1ncnc2c1ncn2[C@@H]1O[C@H](CSCC[C@H](N)C(=O)O)[C@@H](O)[C@H]1O [AdoHcy, S-adenosylhomocysteine] | 29.5 ± 3.6 nM
